Target: human HSD-1 (recombinant HSD-1) (Homo sapiens, UniProt P28845)
Assay: HSD-1 activity inhibitory action in vitro (SPA, conversion of cortisone to cortisol)
Conditions: read-out: hHSD1 (IC50 (nM)); recombinant human HSD-1 expressed using baculovirus system; 10 nM 3H cortisone, 500 μM NADPH; room temperature 90 to 120 min

By UniProt entry, the sequences of proteins in these tests, tags left out.
UniProt P28845, whole entry: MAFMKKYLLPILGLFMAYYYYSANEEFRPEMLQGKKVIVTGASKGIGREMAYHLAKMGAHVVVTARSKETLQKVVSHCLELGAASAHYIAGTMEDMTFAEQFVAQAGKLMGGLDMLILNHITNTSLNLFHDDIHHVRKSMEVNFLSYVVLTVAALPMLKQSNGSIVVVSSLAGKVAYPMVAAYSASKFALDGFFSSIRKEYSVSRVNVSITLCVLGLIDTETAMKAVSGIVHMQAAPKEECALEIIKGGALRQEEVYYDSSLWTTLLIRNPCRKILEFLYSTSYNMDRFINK

Structure (SMILES): O=C(OCCO)N1CCC(n2ncc(C(=O)N3CC[C@@H](c4ccccc4C(F)(F)F)C3)c2C2CC2)CC1
- IC50: < 30 nM

Reference: patent publication US20100010219A1, “METHOD FOR PRODUCING PYRROLIDINE COMPOUND” (JAPAN TOBACCO INC., priority 2006, published 2010)
